The chains behind the UniProt entries cited, without tags or fusion partners.
ATP-dependent Clp protease proteolytic subunit (Bacillus subtilis (strain 168)), P80244, UniProt P80244, whole entry, looked up: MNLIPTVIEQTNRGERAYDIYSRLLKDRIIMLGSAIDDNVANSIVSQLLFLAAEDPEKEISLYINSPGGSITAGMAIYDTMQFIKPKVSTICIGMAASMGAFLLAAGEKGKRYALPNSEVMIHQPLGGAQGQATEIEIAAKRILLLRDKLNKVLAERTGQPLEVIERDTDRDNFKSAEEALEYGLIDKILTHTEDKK

# Most compounds without a hit are left out; they make up all but 3.7% or so of the library.
# IL2 activator: activates IL-2 in a cell-based reporter assay | IL-2 activation reporter assay, cell-based qHTS; stimulated with anti-CD3/CD4/CD28 beads; in transgenic mouse T cells | activation, % (series mostly up to about 46 µM) | 0.065% of 360,000 active | AID 652025; in the data active = activation above about 50%; inconclusive = mostly about 30% to 49%; note: 0% is about no effect
#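 Screening format: compound pinned onto unstimulated transgenic mouse T cells, 60 min incubation, then anti-CD3/anti-CD4/anti-CD28 bead stimulation for 18 hours at 37 degrees C, followed by EGFP and DsRed detection.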
# Nrf2 ARE act: activators of Nrf2 (ARE) signaling | Potency, µM (doses to about 46.1 µM), inactives show top-dose activation, hits mostly activators | AREc32 ARE-luciferase reporter (MCF7-derived line), luminescence, 24 h | 0.31% of 410,000 active; note: potency is the fitted concentration of half-maximal effect; % of control where 0% means no effect; nearly all actives have a fitted effect of over 65% in size
#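 Steps: seed AREc32_Fluc cells (1000/well, 5% FBS OPTI-MEM); incubate overnight at 37 deg C; add 23 nL compound; incubate 24 hr; add Steady-Glo; hold 30 min RT; read luminescence.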
# Nrf2 inh: inhibitors of Nrf2 signaling | AID 504444 | A549 ARE-Fluc reporter, luciferase luminescence, 18-24 h | Potency, µM (titrated, usually from 46 µM), without a hit: at the highest dose activity change, negative = inhibition, most hits filed as inhibitors | 2.1% of 360,000 active; note: potency is the fitted concentration of half-maximal effect; % is set by controls: 0 for no effect and ±100 for the full control effect; nearly all actives have a fitted effect of over 60% in size
#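 A549 ARE_Fluc cells, 5000/well, 5% FBS OPTI-MEM; compounds in dose-response, 18-24 h at 37 °C/5% CO2; CellTiter-Fluor viability read (Ex 405/Em 525), then BugLite luciferase luminescence = Nrf2 activity.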
# A549 viability: kills or reduces viability of A549 cells in Nrf2 counter-screen | A549 ARE-Fluc cells, CellTiter-Fluor viability, 18-24 h | AID 504648 | Potency, µM (top dose mostly 46 µM), without a hit: at the top dose activity change, negative = cytotoxicity, usual class: inhibitors | 0.16% of 390,000 active; note: potency is the fitted concentration of half-maximal effect; % is set by controls: 0 for no effect and ±100 for the full control effect
#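 A549 ARE_Fluc cells in 5% FBS OPTI-MEM were exposed to compounds in concentration-response for 18-24 h at 37 deg C. Viability was read by CellTiter-Fluor fluorescence (Ex 405/Em 525) after 30 min, before the luciferase read.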
# miR-21 reporter: miR-21 reporter, rising signal. 340,000 tested, under 10 active. Potency, µM (highest dose often 38.3 µM), for the others: at the highest dose reporter change, positive = more light. HeLa miR-21 FLuc reporter, luciferase, 48 h. AID 2288; active = well fitted rising curve with a large enough effect; inconclusive = small, poorly fitted or top-dose-only effect; inactive = no such curve, though single readings can be large or run the other way;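 further: % of control where 0% means no effect; miR-21 action dims this reporter so a rising signal means less miR-21 action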
#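 HeLa miR-21-FLuc reporter line, endogenous miR-21; 2000 cells/well in DMEM/10% FBS; compound titration up to ~40uM final, 48 h, 37 degree Celsius; luciferase detection reagent, 15 min lysis, CCD luminescence.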
# ClpP mod: qHTS Assay for Activators of ClpP | ATP-dependent Clp protease proteolytic subunit (Bacillus subtilis (strain 168)), P80244 | purified B. subtilis ClpP, FRET peptide cleavage, 20 min | Potency, µM (series often up to 57.5 µM), without a hit: at the highest dose activity change, negative = active | 1.9% of 340,000 active | AID 651965, 2013; active = well fitted falling curve with a large enough effect; inconclusive = small, poorly fitted or top-dose-only effect; inactive = no such curve, though single readings can be large or run the other way; note: potency is the fitted concentration of half-maximal effect; the source files actives as falling curves though it sought activators and does not explain the sign; nearly all actives have a fitted effect of over 65% in size
#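 FRET quenching reversal measured ClpP activation: 10 microg/mL B. subtilis ClpP at pH 8 with the FRET-FV decapeptide, read at 430 nm after 320 nm excitation. The 20-min minus 0-min signal was scaled between DMSO/no-enzyme wells and ADEP (5.8 microM final).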
# The depositor's hits bear a star; ? = inconclusive; . = no result. Unless noted, calls come from the whole dose curve; as a rule, active = well fitted curve in the direction sought with a large enough effect; inconclusive = small, poorly fitted or top-dose-only effect, or another doubt; inactive = no such curve, though single readings can be large; an effect the other way counts as inactive or inconclusive.
canonical_smiles	IL2 activator	Nrf2 ARE act	Nrf2 inh	A549 viability	miR-21 reporter	ClpP mod
COc1ccc(NC(=O)c2cc3c(s2)-c2c(C)cccc2OC3)cc1Cl	.	5%	?	-13%	-1%	25µM*
COc1ccc(CCNC(=O)c2cc3c(s2)-c2c(C)cccc2OC3)c(OC)c1	.	1%	21µM*	-6%	-3%	5%
COc1cc(Cl)c(C)cc1NC(=O)c1cc2c(s1)-c1c(C)cccc1OC2	.	1%	-13%	-5%	-4%	-10%
COC(=O)c1ccccc1NC(=O)c1cc2c(s1)-c1ccccc1OC2	.	-1%	8%	7%	-5%	5%
CCOC(=O)C1CCCN(Cc2nc(N)nc(Nc3ccc(OC)cc3)n2)C1 (stereo unspecified)	-3	-1%	?	-1%	2%	1%
CCOC(=O)C1CCCN(Cc2nc(N)nc(Nc3ccc(Cl)cc3)n2)C1 (stereo unspecified)	-3	0%	26µM*	-18%	19%	-7%
O=C(Nc1cccc(Br)c1)Nc1nc2c(s1)CCCCCC2	.	4%	.	2%	18%	-2%
COC(=O)c1cc(-c2ccccc2)sc1N	-2	16µM*	?	1%	-43%	-1%
CC(=O)N/C(=C/c1ccc2c(c1)OCO2)C(=O)NC(Cc1ccccc1)C(=O)O (stereo unspecified)	3	0%	5%	0%	.	32µM*
CCc1noc(C)c1C(=O)Oc1ccc(N(C)S(=O)(=O)c2ccc(C)cc2)cc1	0	1%	?	-6%	.	0%
CCc1noc(C)c1C(=O)Oc1ccc(N(C)S(=O)(=O)c2ccccc2)cc1	-1	3%	16µM*	-9%	.	-6%
COc1cc(C2CC(=O)N(Cc3ccc(F)cc3)c3ccccc3S2)cc(OC)c1OC (stereo unspecified)	.	-3%	16µM*	-20%	?	0%
CC1=CC(C)(C)Nc2ccc(OC(=O)CN3C(=O)c4ccccc4C3=O)cc21	10	-3%	?	-2%	?	25µM*
CC(C)Cc1ccc(S(=O)(=O)N2CCC(c3ccncc3)CC2)cc1	.	0%	.	-11%	?	0%
CC(/C=C/c1ccc(N(C)C)cc1)=N\N=C1\NC(=O)CC(C(=O)Nc2ccccc2)S1 (stereo unspecified)	0	4%	-22%	-28%	-32%	1%
CC(/C=C/c1ccc(N(C)C)cc1)=N/N=C1/NC(=O)CC(C(=O)Nc2ccc(Cl)cc2)S1 (stereo unspecified)	0	13%	?	18µM*	-37%	-3%
COc1ccc(CNC(=O)c2cc(-c3cccc(Cl)c3)on2)cc1	.	?	4%	2%	-11%	-2%
O=S1(=O)Nc2c(ccc3cccnc23)-c2ccccc21	-3	7.1µM*	?	?	?	1%
Cc1cnc2c3c(cc(Cl)c2c1)-c1ccccc1S(=O)(=O)N3	.	.	6.5µM*	16µM*	.	.
CC(N=C1NS(=O)(=O)c2ccccc21)C(=O)Nc1ccc(F)cc1Cl (stereo unspecified)	0	0%	-5%	-5%	.	2%
O=C(c1cccn1-c1nnc(N2CCCCC2)s1)N1CCN(c2ccccc2)CC1	.	0%	12%	26%	-6%	-4%
CCc1cccc(NC(=O)c2cn3c4c(ccc(Cl)c4c2=O)OC(C)C3)c1 (stereo unspecified)	.	1%	28%	10%	4%	-8%
COc1ccc2cc(S(=O)(=O)NC3CC(C)(C)NC(C)(C)C3)ccc2c1	-6	1%	?	9%	-3%	28µM*
COc1ccc(S(=O)(=O)NC2CC(C)(C)NC(C)(C)C2)cc1C(C)C	-2	2%	-3%	1%	1%	.
COc1ccccc1N1CCN(C(=O)c2nn(-c3ccc(C)cc3)c(=O)n(C)c2=O)CC1	.	0%	.	0%	-3%	0%
Cc1nc2cc(-c3ccc(Cl)cc3)nn2c(C)c1CCC(=O)NC(C)c1ccc2c(c1)OCCO2 (stereo unspecified)	-4	-3%	13µM*	-4%	19%	4%
Cc1csc(NC(=O)CCc2c(C)nc3cc(-c4ccc(Cl)cc4)nn3c2C)n1	4	-2%	1.5µM*	0%	18%	?
CCOc1ccc(NC(=O)CSc2cc(C)c3ccccc3n2)cc1	.	-1%	.	1%	1%	3%
CCOc1ccc(C2C(C(=O)Nc3ccc(OC)cc3)=C(C)Nc3nc(SCc4ccc(Cl)cc4)nn32)cc1 (stereo unspecified)	.	0%	?	19%	0%	4%
Cc1nc(-c2cccc(F)c2)sc1CCNC(=O)Cc1ccc(F)cc1	.	5%	.	?	-2%	4%
O=C(Nc1ccc(Cl)c(S(=O)(=O)N2CCCCC2)c1)C1=COCCO1	-3	0%	?	1%	.	14µM*
CCOc1ncccc1C(=O)Nc1cc(S(=O)(=O)N2CCCCC2)ccc1Cl	-2	0%	1%	2%	.	32µM*
CCOc1ncccc1C(=O)Nc1ccc(Cl)c(S(=O)(=O)N2CCCC2)c1	-1	0%	18µM*	-7%	18%	-3%
CC(=O)CSc1nc(-c2ccccc2)c(-c2ccccc2)o1	2	0%	-14%	-8%	-3%	28µM*
COCCNC(=O)CSc1nc(-c2ccccc2)c(-c2ccccc2)o1	1	2%	-18%	-1%	7%	-19%
CCN1/C(=C/C=C/C=C/C=C/c2sc3ccccc3[n+]2CC)Sc2ccccc21	-4	2%	21µM*	?	-1%	-1%
CCN1/C(=C/C=C/C=C/c2sc3ccccc3[n+]2CC)Sc2ccccc21	.	.	.	.	?	-2%
Cc1ccc(NC(=O)COc2coc(CN3CCc4ccccc4C3)cc2=O)c(C)c1	-1	0%	-1%	1%	.	1%
COc1ccccc1N1CCN(Cc2cc(=O)c(OCC(=O)Nc3ccccc3)co2)CC1	-2	-1%	?	-3%	.	25µM*
Cc1ccc(C)c(NC(=O)COc2coc(CN3CCc4ccccc4C3)cc2=O)c1	-3	-1%	10µM*	-5%	.	.
Cc1cc(C)c[n+](C2=C([O-])c3ccccc3C(=O)/C2=N\S(=O)(=O)c2cccs2)c1	0	0%	21µM*	?	0%	1%
Cc1ccc(NC(=O)Nc2nnc(N3CCCCC3)s2)c(C)c1	.	2%	-12%	0%	15%	1%

# Two of the compounds above, with two lines to a compound:
# Values run as follows: IL2 activator, Nrf2 ARE act, Nrf2 inh, A549 viability, miR-21 reporter, ClpP mod
CCN1/C(=C/C=C/C=C/c2sc3ccccc3[n+]2CC)Sc2ccccc21
    ., ., ., ., ?, -2%
Cc1ccc(NC(=O)COc2coc(CN3CCc4ccccc4C3)cc2=O)c(C)c1
    -1, 0%, -1%, 1%, ., 1%

# Single records, as listed above. Order of values: IL2 activator | Nrf2 ARE act | Nrf2 inh | A549 viability | miR-21 reporter | ClpP mod
# Shown for `COc1ccc(S(=O)(=O)NC2CC(C)(C)NC(C)(C)C2)cc1C(C)C` = -2 | 2% | -3% | 1% | 1% | .
# Shown for `CCN1/C(=C/C=C/C=C/C=C/c2sc3ccccc3[n+]2CC)Sc2ccccc21` = -4 | 2% | 21µM* | ? | -1% | -1%
# Shown for `O=C(c1cccn1-c1nnc(N2CCCCC2)s1)N1CCN(c2ccccc2)CC1` = . | 0% | 12% | 26% | -6% | -4%
